# Data: patent US7029870B1 (priority 1997, dated 2006)
# Amino acid sequences for entries named in this document (tags omitted). Residues count along the entry.
# UniProt P78334, 23-506 S102A: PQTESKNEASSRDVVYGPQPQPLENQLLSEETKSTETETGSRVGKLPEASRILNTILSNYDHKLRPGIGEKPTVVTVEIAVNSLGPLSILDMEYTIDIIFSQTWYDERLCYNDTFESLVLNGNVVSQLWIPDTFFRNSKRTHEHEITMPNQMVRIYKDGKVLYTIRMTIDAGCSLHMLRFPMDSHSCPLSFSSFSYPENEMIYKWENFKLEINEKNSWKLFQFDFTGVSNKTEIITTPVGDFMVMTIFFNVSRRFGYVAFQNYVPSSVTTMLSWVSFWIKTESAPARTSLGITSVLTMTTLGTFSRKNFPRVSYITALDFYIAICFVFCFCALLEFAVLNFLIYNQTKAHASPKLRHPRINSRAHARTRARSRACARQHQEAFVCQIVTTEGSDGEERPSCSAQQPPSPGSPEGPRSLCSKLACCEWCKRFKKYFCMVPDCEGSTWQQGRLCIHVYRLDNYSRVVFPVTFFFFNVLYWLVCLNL
# Target: GABAA receptor ε-subunit (Homo sapiens, UniProt P78334, S102A)
# Assay: Radioligand binding to HEK-293 cells transfected with only the ε-subunit cDNA
substance,measurement,value
t-butyl bicyclophosphorothionate,Expression of radioligand binding sites,did not express binding sites
